## Binding of CDR-mutated scFvs to a peptide of the spike HR2 region

Values reported by Li et al. 2023, doi:10.1038/s41467-023-39022-2 (FLAb copy).

Target: peptide PDVDLGDISGINAS, taken from heptad repeat 2 (HR2) of SARS-CoV-2 spike.

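These sequences belong to a second round, designed from the earlier measurements on random variants of the parent. Several design methods are mixed in this list. The assay is AlphaSeq: two haploid yeast populations carry antibody and antigen on their surface. After mating in shaken culture at 30 °C for 16 h, diploids were selected and their barcode pairs sequenced. Read counts were normalised to the haploid input and turned into Kd by a linear fit to BCL2-family pairs of known affinity, for each replicate. Mating was done six times.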

Parent: Ab-14, a human scFv built as VH, the linker GGGGSGGGGSGGGGS, VL. Only the CDRs of the light chain vary.
VH: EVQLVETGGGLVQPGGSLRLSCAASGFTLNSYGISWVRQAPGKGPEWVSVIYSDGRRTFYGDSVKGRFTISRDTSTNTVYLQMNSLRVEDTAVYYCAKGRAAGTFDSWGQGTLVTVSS
VL: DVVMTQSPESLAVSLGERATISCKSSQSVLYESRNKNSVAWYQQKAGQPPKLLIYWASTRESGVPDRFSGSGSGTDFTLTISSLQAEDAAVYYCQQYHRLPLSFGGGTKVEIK

The parent's light chain CDRs are KSSQSVLYESRNKNSVA, WASTRES, QQYHRLPLS; each variant's own CDRs replace them letter for letter.
Affinities are written as log10 Kd with Kd in nM; a lower number is a better binder.
Averages over replicates are reported, and they cover detected replicates only.
An entry "not detected" has no value in the source: the pair was not observed among the diploids in any replicate. This suggests poor binding but is not conclusive.
The list is sorted by this average, lowest first, undetected variants last.
As a blank, each scFv also met three strains without target: over all light chain designs, 4% of these pairings were detected, typically at 2.64 and seldom below 1.59. Also given: how often the same scFv was detected with the empty control strains.
In the paper, a design with two or fewer of six values counts as a poor binder.
Values of this round are not directly comparable with the first-round values of the same sequences.

"mean, log10 nM",detected,control signals,CDR-L1,CDR-L2,CDR-L3
-0.57,6/6,1/18,KSSQSWLYESRNKNSVA,GASTREA,QQYHRLPLS
-0.41,6/6,0/18,KIEQSVLYESRNKNSVA,NASTRES,QQYHRLPLS
-0.29,6/6,0/18,KMSQSVLFQSRNKNSVA,DASTRES,QQYHRLPLS
-0.26,6/6,0/18,KLENSMRWNLRDTNAVA,QASNRAM,QQYQRLPFL
-0.25,6/6,0/18,KQSQEVLFESRNKNSVA,DASTREM,QQYHRLPLS
-0.23,6/6,0/18,KSSQSVAYESRNANSVA,DASTRES,QQYHRLPLS
-0.18,6/6,2/18,KVSQLNLYESRNANNVA,NASLREM,QQYHRLPLS
-0.17,6/6,2/18,KLSQSWLYESRVKNSVA,GASTRES,QQYHRLPLS
-0.11,6/6,0/18,HLSWVNLYESRNKNSVA,NASTRES,QQYHRLPLS
-0.09,6/6,2/18,KLQQSWEYESRNSNNVA,MGSQREV,QQYHRLPLS
-0.09,6/6,1/18,KLMNSMLYESRNVNSVA,NASRRES,QQYHRLPLS
-0.02,6/6,0/18,KLSMSVLYESRNKNSVA,NASTRLS,QQYHRLPLS
-0.01,6/6,0/18,KMSMSVLYEDRNQNSVA,NASQRLD,QQYHRLPLS
0.00,6/6,0/18,KLSQSVLYESRNKNSVA,NASTRES,QDYHRLPLS
0.08,6/6,1/18,KLSQSQLYESRNKNSVA,NASTRCS,QQYHRLPLS
0.11,6/6,1/18,KISQSVLFEPRNKNSVA,DASTRES,QQYHRLPLS
0.12,6/6,0/18,KLEQSVMLESRNVNSVA,SASQREL,QQYHRLPLS
0.13,6/6,1/18,KVSQSNPYESRNAQSVA,NASQRES,QQYHRLPLS
0.16,6/6,1/18,KIGMTLNQLQHKKNNVA,DLVTREQ,QQYHRLPLS
0.18,6/6,2/18,KLPQSVLYWQRNSNSVA,NASTRFS,QQYHRLPLS
0.19,6/6,2/18,HVAGMMGQMGTQHQNIA,DMAIKCD,QQYQRLPLH
0.20,6/6,1/18,KLEQSTLYESRNANSVA,NASTRMS,QQYKRLPLS
0.21,6/6,1/18,HQSQSVGQEERQKNSVA,AASTREQ,QQYHRLPLS
0.26,6/6,0/18,KVSYFNEQVTKKGSNVA,DNETREE,QQYFRLPLS
0.33,6/6,0/18,KFSQKVLYESRAKNSVA,DASQRLS,QQYHRLPLS
0.40,6/6,0/18,KFSQSYLYEDRNKNSVA,NASQRES,QQYHRLPLS
0.43,6/6,0/18,KLSGIMRLEQKKSNSIA,EVNERSE,QQYDRLPLS
0.45,6/6,1/18,KVSQSYHYESRNKNSVA,GASTRES,QQYHRLPLS
0.49,6/6,0/18,HISDLIMVASRNKNSVA,EESTRND,QQYHRLPLS
0.64,1/6,0/18,KMSPSELYESRNCNSVA,QASTRES,QQCHRLELS
0.64,6/6,1/18,KLYQATAMTSHMRNNVA,DLNERER,QQYFRLPLS
0.71,6/6,1/18,NLNDSDMYMSQMTDNIA,QDTLRNE,QQYAKLPLS
0.71,6/6,0/18,HSSPSVCYESRNKNSVA,NASTRES,QQYHRLPLS
0.72,6/6,0/18,TLVQSVMSGGRTKNSVA,NAETRYD,QHYHRLPLS
0.75,6/6,0/18,NIVGRAVMQDSGRNAIA,NAHARCT,QQYFRLPLT
0.77,6/6,2/18,MFDQQTMNENDKNNSVA,EVNHLVN,QQYAQLPLI
0.78,6/6,2/18,KIEQSLFPYGPSWHSVA,NANTLLA,QQYYMLPLM
0.84,6/6,0/18,IISDLTMYGSRNVNSVA,DLSTRGS,QQYDRLPLS
0.87,6/6,0/18,KSSISSLYEERNDNSVA,NASQREH,QQYHRLPLS
0.98,6/6,0/18,IVSQLMLWGYHHKNSIA,EAQTRLN,QQYDRLPLI
1.07,2/6,0/18,KLAQGIYEPVRKSNNIA,EASHVGD,QQYERLPLE
1.15,6/6,0/18,IIDQIMYHGNKRANSIA,QASERLN,QQYHHLPLT
1.17,6/6,0/18,KLSQSMLYESRQKNSVA,NASTRES,QQYHRLPLS
1.19,6/6,0/18,KSSQSQLYESMNKNPVA,WASTREE,QQYHRLPLS
1.19,4/6,0/18,MISQLMNLGQFAINSVA,QAEIRNN,QQYDRLPLA
1.22,6/6,0/18,KQSISYLEESRNKNSVA,EASTRES,QQYHRLPLS
1.65,5/6,0/18,ILNLSPMEHQIHMDAIA,QEAIRNA,QQYARLPLS
1.65,6/6,1/18,KLSMSYRYESEMKNSIA,ELVTRMS,QQYHRLPLS
1.69,6/6,0/18,MMGMTVTNQSNEIGNVA,DMNERFA,QQYFQLPLS
1.71,6/6,0/18,KITQTMRFEQKISNNIA,EVTLRSK,QQYYRLPLS
2.14,6/6,0/18,MLSQMFGLGMKTSNSVA,QASMRFN,QQYHRLPLI
2.16,6/6,4/18,QLYEMLYELSGKTHSVA,DNSTRGE,QQYFRLPLD
2.17,5/6,0/18,KLQSSTLYESRQKNSVA,WASTRES,QQYHRLPLS
2.18,6/6,0/18,KLSMSGLYESRNKNSVA,EASTRES,QDYHRLPLS
2.19,6/6,2/18,NLQLQPRDGAQAQSSIA,DVSEADM,QQYARLPLH
2.34,4/6,1/18,MLSDLVKIGSRNTNSVA,DNSTRGS,QQYDRLPLS
2.69,1/6,0/18,MFSQSVHYESRNKNSVA,WASTRES,QVYARLPLS
not detected,0/6,0/18,MSSNSVLYEARNKNSVA,GASTRES,QQPHRLPLS
not detected,0/6,0/18,KSSNSVLYISSNKNSVA,WASTRES,QQYHHLPLS